{"source": "patent US5232849A", "about": "“Bacteriocin from lactococcus lactis subspecies lactis” (Quest International Flavors & Food Ingredients Company …, priority 1992, dated 1993)", "key": {"[1]": {"target": "T1, alpha-chymotrypsin (Bos taurus, UniProt P00766)", "T1 construct": "purchased Sigma (St. Louis, Mo.)", "assay": "Chymotrypsin susceptibility of bacteriocin", "format": "physicochemical", "details": "for Titer after chymotrypsin treatment: 2 hour at 40°", "experimental": "(§1) Enzymatic Reactions. Trypsin and chymotrypsin susceptibility of crude and purified bacteriocin was explored. Enzymes were obtained from Sigma (St. Louis, Mo.) and were stored lyophilized at -20° C. until use. Enzymatic reactions were done in a 0.1M ammonium bicarbonate buffer, pH 7.8, containing 0.1 mM calcium chloride (Deutcher, M. P., Meth. Enzymol. 182:611-612 (1990)). Susceptibility was defined as inability of the bacteriocin to inhibit the growth of a lawn of indicator bacteria when applied to the surface of an agar plate containing the bacteria at a rate of 16 units activity in a volume of 5 μl.\n(§2) Titer <200 is deemed sensitive to protease action; titer >200 is resistant.\nChymotrypsin digestion was done by 2 hour incubation at 40° with 3200-6400 Au/ml bacteriocin concentration."}, "[2]": {"tested_on": "trypsin", "assay": "Trypsin susceptibility of bacteriocin", "format": "physicochemical", "details": "for Titer after trypsin treatment: 20 hours at 40 °C", "experimental": "as §1, §2\nTrypsin digestion was done by 20 hours incubation at 40° C. with 3200-6400 Aμ/ml bacteriocin concentration."}}, "data": [{"substance": "nisin [Nisin Pure]", "values": [{"measurement": "sensitive (S) / resistant (R) to chymotrypsin", "setting": "[1]; chymotrypsin 1 μg/ml", "result": "R (titer >200 is resistant)"}, {"measurement": "Titer after chymotrypsin treatment", "setting": "[1]; chymotrypsin 1 μg/ml", "result": "> 200"}, {"measurement": "Titer after chymotrypsin treatment", "setting": "[1]; chymotrypsin 10 μg/ml", "result": "> 200"}, {"measurement": "Titer after chymotrypsin treatment", "setting": "[1]; chymotrypsin 100 μg/ml", "result": "> 200"}, {"measurement": "sensitive (S) / resistant (R) to chymotrypsin", "setting": "[1]; chymotrypsin 1 mg/ml", "result": "R (titer >200 is resistant)"}, {"measurement": "Titer after chymotrypsin treatment", "setting": "[1]; chymotrypsin 1 mg/ml, 3200-6400 AU/ml bacteriocin", "result": "> 200"}, {"measurement": "sensitive (S) / resistant (R) to trypsin", "setting": "[2]; trypsin 1 ng/ml", "result": "R (titer >200 is resistant)"}, {"measurement": "Titer after trypsin treatment", "setting": "[2]; trypsin 1 ng/ml", "result": "< 200"}, {"measurement": "sensitive (S) / resistant (R) to trypsin", "setting": "[2]; trypsin 10 ng/ml", "result": "S (Titer <200 is deemed sensitive to protease action)"}, {"measurement": "Titer after trypsin treatment", "setting": "[2]; trypsin 10 ng/ml", "result": "< 200"}, {"measurement": "Titer after trypsin treatment", "setting": "[2]; trypsin 100 ng/ml", "result": "< 200"}, {"measurement": "Titer after trypsin treatment", "setting": "[2]; trypsin 1 μg/ml", "result": "< 200"}, {"measurement": "Titer after trypsin treatment", "setting": "[2]; trypsin 10 μg/ml", "result": "< 200"}, {"measurement": "Titer after trypsin treatment", "setting": "[2]; trypsin 100 μg/ml", "result": "< 200"}, {"measurement": "sensitive (S) / resistant (R) to trypsin", "setting": "[2]; trypsin 1 mg/ml", "result": "S (Titer <200 is deemed sensitive to protease action)"}, {"measurement": "Titer after trypsin treatment", "setting": "[2]; trypsin 1 mg/ml, 3200-6400 AU/ml bacteriocin", "result": "< 200"}]}]}
